Literature values as cited in paper PMC5272823 (Peptides, 2016).

Conditions: ref [7]; cited from earlier work

Substance: insulin
- Plasma insulin half-life: 4 to 6 min
